The target in test [1] is T1, PARP2 (Homo sapiens, UniProt Q9UGN5).
T1 construct: made in house
In kind it is biochemical. The procedure:
(§1) All starting materials, reagents, and solvents were purchased from common commercial suppliers and were used as such without further purification. […] Organic solutions were dried over anhydrous Na2SO4 and concentrated with rotary evaporator at low pressure. All the reactions were routinely checked by thin-layer chromatography (TLC) on silica gel 60F254 (Merck) and visualized by using UV and iodine. Flash chromatography separations were carried out on Merck silica gel 60 (mesh 230-400) or by using automated Buchi Reveleris X2-UV with column FP Ecoflex Si 12 g. Yields were of purified products and were not optimized. ^1HNMR spectra were recorded at 400 MHz (Bruker Avance DRX-400), while ^13CNMR spectra were recorded at 101 MHz (Bruker Avance DRX-400). Chemical shifts are given in ppm (δ) relative to TMS. […] Mating constant (J) are reported in Hz. The purity of the tested compounds was evaluated by HPLC analysis using Jasco LC-4000 instrument equipped with a UV-Visible Diode Array Jasco-MD4015 (Jasco Corporation, Tokyo, Japan), and XTerra MS C18 column, 5 μm×4.6 mm×150 mm (Waters Corporation, Massachusetts, USA). Chromatograms were analyzed by ChromNAV2.0 Chromatography Data System software. […] The peak retention time (ret. time) is given in minutes. […] 1-Isobutoxy-4-methoxy-2-nitrobenzene (113). Isobutyl alcohol (0.6 mL, 6.43 mmol) was added, under nitrogen atmosphere at 0° C., to a suspension of NaH (0.26 g, 6.43 mmol) in dry DMF. After 15 minutes, 1-fluoro-4-methoxy-2-nitrobenzene 112 (1 g, 5.84 mmol) was also added and the reaction mixture was stirred at 80° C. for 4 h. […] (2-Isobutoxy-5-methoxyphenyl)amine (114). Zn (1.57 g, 24 mmol) and NH4C1 (2.45 g, 40 mmol) were added to a solution of 113 (0.46 g, 2 mmol) in acetone/H2O (50 mL, ratio 5:1). The reaction mixture was stirred at 60° C. for 3 h and, then, it was filtered over celite. […] N-(2,5-diethoxyphenyl)thiourea (55). […] N-(2-isobutoxy-5-methoxyphenyl)thiourea (115). […] A solution of Br2 (0.2 mL, 3.3 mmol) in CHCl3 (5 mL) was slowly added to a suspension of 45 (0.6 g, 3.3 mmol) in CHCl3 (13 mL), at 0° C. The reaction mixture was stirred at r.t. for 4 h and, then, a 10% solution of Na2SO3 in water was added to the mixture. […] 4,7-Diethoxy-1,3-benzothiazol-2-amine (66). […] 4-Isobutoxy-7-methoxy-1,3-benzothiazol-2-amine (116).

Sequences of proteins named here, by UniProt entry; tags and fusion partners are left off. A change or cut given only in a name is not applied to a line headed by its entry. Residues count along the entry.
UniProt Q9UGN5: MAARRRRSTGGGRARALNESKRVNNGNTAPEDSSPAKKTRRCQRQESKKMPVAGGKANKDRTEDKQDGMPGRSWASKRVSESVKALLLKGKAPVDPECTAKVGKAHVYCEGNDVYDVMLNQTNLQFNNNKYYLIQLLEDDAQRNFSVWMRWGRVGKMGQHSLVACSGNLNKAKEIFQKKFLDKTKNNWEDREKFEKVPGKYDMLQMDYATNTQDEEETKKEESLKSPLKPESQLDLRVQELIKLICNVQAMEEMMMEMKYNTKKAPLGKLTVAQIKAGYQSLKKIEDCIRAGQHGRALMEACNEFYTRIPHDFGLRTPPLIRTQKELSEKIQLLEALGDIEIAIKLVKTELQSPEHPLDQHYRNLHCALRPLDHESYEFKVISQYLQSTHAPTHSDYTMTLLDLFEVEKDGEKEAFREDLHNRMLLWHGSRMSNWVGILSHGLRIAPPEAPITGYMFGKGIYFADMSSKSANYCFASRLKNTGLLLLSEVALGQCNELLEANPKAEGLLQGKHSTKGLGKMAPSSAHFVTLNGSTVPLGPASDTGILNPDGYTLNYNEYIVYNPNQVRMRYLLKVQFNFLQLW
UniProt Q9H0J9, 489-701: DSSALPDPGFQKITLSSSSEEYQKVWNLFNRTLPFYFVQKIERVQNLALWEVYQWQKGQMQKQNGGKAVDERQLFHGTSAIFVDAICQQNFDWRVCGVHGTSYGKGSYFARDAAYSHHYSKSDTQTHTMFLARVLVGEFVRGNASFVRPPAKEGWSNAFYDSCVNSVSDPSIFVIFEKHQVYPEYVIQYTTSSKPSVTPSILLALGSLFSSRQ
UniProt Q7Z3E1, 448-657: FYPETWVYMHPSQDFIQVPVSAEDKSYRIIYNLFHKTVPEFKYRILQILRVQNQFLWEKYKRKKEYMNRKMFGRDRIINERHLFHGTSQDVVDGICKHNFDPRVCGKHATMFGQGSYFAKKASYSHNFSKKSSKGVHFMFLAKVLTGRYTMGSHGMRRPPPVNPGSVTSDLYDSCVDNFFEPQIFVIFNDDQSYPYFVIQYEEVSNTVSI
UniProt P09874, whole entry: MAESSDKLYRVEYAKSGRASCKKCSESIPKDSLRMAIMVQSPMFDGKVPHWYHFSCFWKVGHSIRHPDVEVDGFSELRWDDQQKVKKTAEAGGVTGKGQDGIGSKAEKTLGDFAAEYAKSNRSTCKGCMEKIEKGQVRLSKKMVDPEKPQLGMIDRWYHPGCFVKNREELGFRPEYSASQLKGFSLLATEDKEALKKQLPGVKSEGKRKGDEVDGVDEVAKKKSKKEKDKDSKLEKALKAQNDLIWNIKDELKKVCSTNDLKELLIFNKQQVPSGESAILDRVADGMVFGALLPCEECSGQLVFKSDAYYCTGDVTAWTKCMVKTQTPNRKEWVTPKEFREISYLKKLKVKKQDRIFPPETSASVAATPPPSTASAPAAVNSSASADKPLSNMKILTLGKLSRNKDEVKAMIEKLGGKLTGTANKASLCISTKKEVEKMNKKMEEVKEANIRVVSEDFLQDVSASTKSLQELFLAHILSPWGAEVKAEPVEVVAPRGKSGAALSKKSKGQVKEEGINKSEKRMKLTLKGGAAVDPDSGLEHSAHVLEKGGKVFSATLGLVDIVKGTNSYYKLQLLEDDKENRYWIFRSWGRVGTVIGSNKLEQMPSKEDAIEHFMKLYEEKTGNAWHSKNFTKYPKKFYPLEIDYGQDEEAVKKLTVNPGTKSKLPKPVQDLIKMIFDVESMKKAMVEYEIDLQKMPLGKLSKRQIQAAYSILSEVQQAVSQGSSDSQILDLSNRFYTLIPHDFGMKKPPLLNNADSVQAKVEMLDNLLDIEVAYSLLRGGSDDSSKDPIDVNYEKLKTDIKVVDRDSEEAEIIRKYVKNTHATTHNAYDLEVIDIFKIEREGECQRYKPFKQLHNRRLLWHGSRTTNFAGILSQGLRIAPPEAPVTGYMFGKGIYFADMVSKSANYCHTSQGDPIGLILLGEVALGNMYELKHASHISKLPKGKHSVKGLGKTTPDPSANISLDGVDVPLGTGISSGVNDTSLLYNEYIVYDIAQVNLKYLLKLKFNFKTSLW
UniProt Q9NR21, 116-338: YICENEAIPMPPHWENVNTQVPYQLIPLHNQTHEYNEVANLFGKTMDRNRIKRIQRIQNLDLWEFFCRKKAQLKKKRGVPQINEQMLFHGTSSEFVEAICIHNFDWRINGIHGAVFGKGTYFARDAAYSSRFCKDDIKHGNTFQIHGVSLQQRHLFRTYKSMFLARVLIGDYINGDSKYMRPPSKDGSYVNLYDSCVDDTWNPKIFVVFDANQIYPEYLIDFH
UniProt Q460N5, 1535-1801: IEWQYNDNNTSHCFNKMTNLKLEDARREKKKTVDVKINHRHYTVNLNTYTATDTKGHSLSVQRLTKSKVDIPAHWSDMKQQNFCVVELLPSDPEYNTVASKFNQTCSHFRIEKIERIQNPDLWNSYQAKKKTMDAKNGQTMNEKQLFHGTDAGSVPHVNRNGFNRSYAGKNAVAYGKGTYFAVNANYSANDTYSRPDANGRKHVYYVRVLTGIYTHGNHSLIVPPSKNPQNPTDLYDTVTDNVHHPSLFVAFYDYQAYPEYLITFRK
UniProt Q9Y6F1: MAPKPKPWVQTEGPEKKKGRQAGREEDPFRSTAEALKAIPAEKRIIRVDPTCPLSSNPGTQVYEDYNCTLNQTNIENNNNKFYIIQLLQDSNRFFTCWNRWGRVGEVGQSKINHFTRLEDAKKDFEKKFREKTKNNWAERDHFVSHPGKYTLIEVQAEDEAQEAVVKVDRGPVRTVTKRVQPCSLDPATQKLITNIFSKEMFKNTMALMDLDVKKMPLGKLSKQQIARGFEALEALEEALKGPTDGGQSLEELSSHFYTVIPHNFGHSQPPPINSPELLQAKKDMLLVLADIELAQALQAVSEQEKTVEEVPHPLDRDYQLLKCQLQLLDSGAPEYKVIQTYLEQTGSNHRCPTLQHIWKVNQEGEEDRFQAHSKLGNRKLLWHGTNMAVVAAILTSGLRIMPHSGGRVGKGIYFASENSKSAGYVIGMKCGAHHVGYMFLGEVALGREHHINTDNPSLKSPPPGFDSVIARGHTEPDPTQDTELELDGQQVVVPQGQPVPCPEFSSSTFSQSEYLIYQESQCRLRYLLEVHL
UniProt Q9UKK3: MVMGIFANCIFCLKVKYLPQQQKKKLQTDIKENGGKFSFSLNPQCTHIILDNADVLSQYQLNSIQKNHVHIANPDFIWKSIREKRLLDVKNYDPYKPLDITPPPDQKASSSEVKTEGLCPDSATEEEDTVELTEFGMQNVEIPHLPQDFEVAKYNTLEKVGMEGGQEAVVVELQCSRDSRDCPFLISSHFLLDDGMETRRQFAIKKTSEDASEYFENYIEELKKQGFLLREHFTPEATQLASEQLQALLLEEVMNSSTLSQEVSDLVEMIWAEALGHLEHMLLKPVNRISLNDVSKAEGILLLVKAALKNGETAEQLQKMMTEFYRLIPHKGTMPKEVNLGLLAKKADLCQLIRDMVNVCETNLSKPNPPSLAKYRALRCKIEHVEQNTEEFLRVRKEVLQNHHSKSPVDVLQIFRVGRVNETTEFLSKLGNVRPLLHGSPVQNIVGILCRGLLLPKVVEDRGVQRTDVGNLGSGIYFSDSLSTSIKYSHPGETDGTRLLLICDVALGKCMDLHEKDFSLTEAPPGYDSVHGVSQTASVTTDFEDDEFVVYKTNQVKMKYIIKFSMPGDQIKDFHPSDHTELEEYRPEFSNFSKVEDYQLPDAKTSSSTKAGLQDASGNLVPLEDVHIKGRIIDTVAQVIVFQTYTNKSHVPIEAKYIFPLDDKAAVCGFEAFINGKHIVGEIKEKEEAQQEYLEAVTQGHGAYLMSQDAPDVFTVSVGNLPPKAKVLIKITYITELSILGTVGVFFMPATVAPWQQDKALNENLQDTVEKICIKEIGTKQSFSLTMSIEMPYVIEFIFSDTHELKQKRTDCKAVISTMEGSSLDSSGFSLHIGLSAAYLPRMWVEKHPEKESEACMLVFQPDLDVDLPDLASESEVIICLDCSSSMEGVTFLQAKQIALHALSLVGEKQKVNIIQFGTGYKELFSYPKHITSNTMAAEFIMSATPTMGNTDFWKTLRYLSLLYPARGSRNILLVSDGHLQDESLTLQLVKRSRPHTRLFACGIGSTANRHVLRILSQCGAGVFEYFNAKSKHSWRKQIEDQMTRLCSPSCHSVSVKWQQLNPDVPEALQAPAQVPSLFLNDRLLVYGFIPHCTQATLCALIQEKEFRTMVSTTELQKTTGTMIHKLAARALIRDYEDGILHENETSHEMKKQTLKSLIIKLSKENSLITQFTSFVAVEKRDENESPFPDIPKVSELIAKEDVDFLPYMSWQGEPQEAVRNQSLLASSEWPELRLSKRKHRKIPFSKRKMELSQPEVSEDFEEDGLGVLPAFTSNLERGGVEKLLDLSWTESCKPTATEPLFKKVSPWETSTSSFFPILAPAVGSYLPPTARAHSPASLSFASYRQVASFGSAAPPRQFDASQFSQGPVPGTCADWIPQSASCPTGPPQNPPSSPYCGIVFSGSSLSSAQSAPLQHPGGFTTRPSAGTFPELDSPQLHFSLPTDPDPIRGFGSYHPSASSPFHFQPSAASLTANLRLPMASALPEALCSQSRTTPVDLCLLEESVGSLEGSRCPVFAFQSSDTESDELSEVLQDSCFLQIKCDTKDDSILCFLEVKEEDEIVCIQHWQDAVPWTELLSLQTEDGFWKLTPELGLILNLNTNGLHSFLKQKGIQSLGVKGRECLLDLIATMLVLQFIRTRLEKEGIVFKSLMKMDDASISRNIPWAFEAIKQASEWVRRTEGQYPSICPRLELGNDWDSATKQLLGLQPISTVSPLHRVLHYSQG

The target of test [2] is T2, PARP10 (Homo sapiens, UniProt Q53GL7).
T2 construct: made in house
T2 sequence (Q53GL7 1-1025): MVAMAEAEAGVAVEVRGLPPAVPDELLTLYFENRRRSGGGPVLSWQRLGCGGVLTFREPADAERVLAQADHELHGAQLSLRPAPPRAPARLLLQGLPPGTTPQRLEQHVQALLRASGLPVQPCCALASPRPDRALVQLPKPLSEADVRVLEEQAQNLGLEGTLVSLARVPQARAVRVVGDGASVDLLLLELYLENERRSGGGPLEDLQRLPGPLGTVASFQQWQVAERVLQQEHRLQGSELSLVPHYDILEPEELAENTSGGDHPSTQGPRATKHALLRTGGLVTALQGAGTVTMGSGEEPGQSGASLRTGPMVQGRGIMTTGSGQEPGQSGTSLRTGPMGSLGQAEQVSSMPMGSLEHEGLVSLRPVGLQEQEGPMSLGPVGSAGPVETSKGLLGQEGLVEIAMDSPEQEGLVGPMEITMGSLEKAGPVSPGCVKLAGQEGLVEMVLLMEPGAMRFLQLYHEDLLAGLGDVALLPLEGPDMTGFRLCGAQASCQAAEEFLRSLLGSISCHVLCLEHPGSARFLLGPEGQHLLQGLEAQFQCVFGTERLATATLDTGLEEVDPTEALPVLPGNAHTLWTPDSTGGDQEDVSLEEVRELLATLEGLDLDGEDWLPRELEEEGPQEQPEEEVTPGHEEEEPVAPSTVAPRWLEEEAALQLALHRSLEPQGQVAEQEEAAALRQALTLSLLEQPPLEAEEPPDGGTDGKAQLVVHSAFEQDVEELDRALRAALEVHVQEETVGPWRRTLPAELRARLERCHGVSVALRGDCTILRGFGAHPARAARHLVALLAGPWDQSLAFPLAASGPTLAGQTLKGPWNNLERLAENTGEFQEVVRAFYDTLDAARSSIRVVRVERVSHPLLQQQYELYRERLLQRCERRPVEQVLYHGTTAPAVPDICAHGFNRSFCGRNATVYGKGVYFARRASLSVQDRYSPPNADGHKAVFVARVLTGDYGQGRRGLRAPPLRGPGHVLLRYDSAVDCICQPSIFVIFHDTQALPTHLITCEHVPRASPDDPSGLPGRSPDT
The test can be described thus: Activity assay measuring NAD+ consumption, PARP10 (Tables 1-3). In kind it is biochemical.

Test [3] concerns the target PARP12 (489-701) (Homo sapiens, UniProt Q9H0J9). The test can be described thus: biochemical. As to the method:
as §1

Test [4] has as its target T3, PARP15 (Homo sapiens, UniProt Q460N3).
T3 sequence (Q460N3 1-678): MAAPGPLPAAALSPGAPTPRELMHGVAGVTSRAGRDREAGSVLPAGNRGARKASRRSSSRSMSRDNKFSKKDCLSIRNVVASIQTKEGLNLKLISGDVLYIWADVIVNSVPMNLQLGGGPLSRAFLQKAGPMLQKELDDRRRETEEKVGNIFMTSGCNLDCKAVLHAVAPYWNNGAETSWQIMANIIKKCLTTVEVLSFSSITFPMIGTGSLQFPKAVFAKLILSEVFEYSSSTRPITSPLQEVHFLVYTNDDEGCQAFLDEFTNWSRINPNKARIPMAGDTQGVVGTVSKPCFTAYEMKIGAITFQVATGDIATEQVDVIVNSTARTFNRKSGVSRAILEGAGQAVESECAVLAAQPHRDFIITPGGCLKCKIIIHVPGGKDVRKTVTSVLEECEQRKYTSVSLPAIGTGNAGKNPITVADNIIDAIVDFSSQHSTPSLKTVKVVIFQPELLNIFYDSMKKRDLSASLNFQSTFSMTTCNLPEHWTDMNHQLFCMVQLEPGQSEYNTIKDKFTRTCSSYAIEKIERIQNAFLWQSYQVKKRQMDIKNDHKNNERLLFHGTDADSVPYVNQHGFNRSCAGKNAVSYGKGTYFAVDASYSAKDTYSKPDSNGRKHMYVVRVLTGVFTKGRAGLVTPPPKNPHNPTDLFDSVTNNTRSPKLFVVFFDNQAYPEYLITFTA
The test can be described thus: biochemical. The procedure: as §1

For test [5], the target named is PARP7 (residues 448-657) (Homo sapiens, UniProt Q7Z3E1). The test can be described thus: biochemical. As to the method:
as §1

Test [6] deals with PARP1 (Homo sapiens, UniProt P09874). The note with it: for IC50: read-out: PARP1 IC50, Table 4. The procedure:
as §1

For test [7], the target named is PARP10 (809-1016) (Homo sapiens, UniProt Q53GL7). Conditions: read-out: PARP10 IC50; proximity enhanced assay. As to the method: as §1
For test [8], the target named is PARP11 (116-338) (Homo sapiens, UniProt Q9NR21). The note with it: proximity enhanced assay; for IC50: read-out: PARP11 IC50; for PARP11 pIC50 ± SEM: n = 3. The procedure:
as §1

Test [9] concerns the target PARP14 (1535-1801) (Homo sapiens, UniProt Q460N5). Conditions: read-out: PARP14 IC50; proximity enhanced assay. The procedure:
as §1

In test [10] the target is PARP15 (481-678) (Homo sapiens, UniProt Q460N3). The note with it: read-out: PARP15 IC50; proximity enhanced assay. As to the method:
as §1

Test [11] deals with PARP3 (Homo sapiens, UniProt Q9Y6F1). Conditions: read-out: PARP3 IC50; Table 4. As to the method:
as §1

The target of test [12] is PARP4 (Homo sapiens, UniProt Q9UKK3). Conditions: read-out: PARP4 IC50; Table 4. As to the method: as §1
The mark [13] stands for this setting: PARP10 IC50, Tables 1-3 assay, > less than 50% inhibition, >> no inhibition at reported concentration, * value limited by protein concentration.
Where [14] appears, read: Tables 1-3 assay, read-out: PARP10 IC50.
Setting [15] is: read-out: PARP15 IC50, Tables 1-3 assay.
Setting [16] is: proximity enhanced assay, n = 3.

Consider three molecules from US20250177359A1, “COMPOUNDS FOR USE IN THE TREATMENT OF CANCER AND INFLAMMATORY CONDITIONS” (priority 2022, published 2025).

Each structure is given as a SMILES string. Where two headings read alike, the source gives them in different places.

Broadly, the IC50 is the concentration that inhibits the measured activity by half.

In the case of `Oc1ccc2c(c1)sc1nncn12` [Compound 10], in test [1] (IC50 of […] nM versus 370 nM), the “selectivity for PARP2 over TNKS2” value was “ten-fold”. Moreover, in test [1] (Table 4 values), the “selectivity towards PARP2 over PARP1” value turned out to be 13 fold. In test [1] (Table 4 values), the “selectivity towards PARP2 over tankyrases” value was 8 fold. In addition, the IC50 was above 10 µM in test [2] (setting [13]); above 10 µM in [3]; above 10 µM in test [4]; above 10 µM in [5]; 0.57 µM in [6]; 2.9 µM in test [7]. The IC50 in [8] amounted to 9.4 µM; in [9] it was 6.7 µM; in test [10] it was 2 µM; in test [11], 8.8 µM; in [12], 6 µM. Moreover, the “PARP1 pIC50 ± SEM” value in [6] (n = 3) is “(6.25 ± 0.02)”.

Turning to `Cc1ccc2c(c1)sc1nnc(N)n12` [Compound 22, 7-Methyl[1,2,4]triazolo[3,4-b][1,3]benzothiazol-3-amine], the IC50 was at most 0.18 µM in test [2] (setting [13]); 0.18 µM in test [2] (setting [14]); 4.4 µM in test [3] (read-out: PARP12 IC50, proximity enhanced assay, > less than 50% inhibition at highest concentration); 0.3 µM in test [4] (setting [15]); 3.8 µM in test [5] (read-out: PARP7 IC50, proximity enhanced assay, >> no inhibition at reported concentration); 0.025 µM in [7]. Also, the IC50 in [9] came out at 0.65 µM; in test [10], 0.26 µM; in test [11], 34 µM; in test [12], 10 µM. The “PARP10 pIC50 ± SEM” value in test [2] (Tables 1-3 assay) was “(6.73 ± 0.12)”. In addition, the “PARP15 pIC50 ± SEM” value in [4] (Tables 1-3 assay) was “(6.53 ± 0.14)”. Also, the “PARP11 pIC50 ± SEM” value in test [8] is given as “(6.33 ± 0.13)”.

As for `COc1ccc(OC)c2c1sc1nnc(N)n12` [Compound 28, 5,8-Dimethoxy[1,2,4]triazolo[3,4-b][1,3]benzothiazol-3-amine], the IC50 was at most 0.12 µM in test [2] (setting [13]); 0.12 µM in test [2] (setting [14]); at most 0.12 µM in test [4]; 0.12 µM in test [4] (setting [15]); 15 µM in [6]; 0.24 µM in test [8]. Besides, the IC50 in test [9] turned out to be 0.3 µM; in test [10], 0.056 µM; in [11], 50 µM; in test [12] it was 11 µM. For the same molecule, the “PARP10 pIC50 ± SEM” value in test [2] (Tables 1-3 assay) is given as “(6.93 ± 0.06)”. The “PARP12 pIC50 ± SEM” value in test [3] (setting [16]) was “(6.80 ± 0.002)”. In addition, the “PARP15 pIC50 ± SEM” value in test [4] (Tables 1-3 assay) is reported as “(6.91 ± 0.03)”. Moreover, the “PARP7 pIC50 ± SEM” value in test [5] (setting [16]) is given as “(7.08 ± 0.06)”. In addition, the “PARP11 pIC50 ± SEM” value in test [8] is listed as “(6.61 ± 0.07)”.
